# Yeast mating assay B: variants of the scFv Ab-14

From the AlphaSeq antibody data of Li et al. 2023 (doi:10.1038/s41467-023-39022-2), copy in the FLAb collection.

The target is the same throughout: PDVDLGDISGINAS, from the HR2 region of SARS-CoV-2 spike.

The variants keep the heavy chain, the linker and the frameworks of Ab-14 (scFv order VH, a (GGGGS)3 linker, VL).
VH: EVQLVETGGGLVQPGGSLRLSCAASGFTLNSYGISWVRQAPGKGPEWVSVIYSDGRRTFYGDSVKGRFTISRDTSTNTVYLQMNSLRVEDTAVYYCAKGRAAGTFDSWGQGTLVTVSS
VL: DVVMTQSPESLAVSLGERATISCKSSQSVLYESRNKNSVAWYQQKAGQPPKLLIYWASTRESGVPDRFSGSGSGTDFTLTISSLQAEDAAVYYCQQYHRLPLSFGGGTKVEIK

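The parent was found by panning a naive human phage display library on the peptide. These sequences belong to a second round, designed from the earlier measurements on random variants of the parent. Several design methods are mixed in this list. Affinity was read by AlphaSeq, a pooled yeast mating assay with surface-displayed partners. The frequency of each diploid, read from paired DNA barcodes, reflects how well the two displayed proteins bind. A regression on co-assayed BCL2-family reference pairs converts the normalised counts of each replicate to an apparent Kd. Each pool was mated in six replicate cultures.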

Variants are written as CDR1, CDR2 and CDR3 of the light chain (limits as in the source). Parent: KSSQSVLYESRNKNSVA, WASTRES, QQYHRLPLS. Scale: log10 of Kd in nM, estimated from mating counts; low values are strong binders. Replicates are averaged; those with no signal do not enter the mean. A pair that was not seen in that replicate is written "nd"; this usually means weak binding, but a binder can also be missed.

CDR-L1,CDR-L2,CDR-L3,"log10 Kd, replicates","mean, log10 nM",signal with controls
HMSMLTLMGMKQRNSVA,QMTMREN,QQYDRLPLM,1.21 0.70 0.74 1.09 0.95 1.48,1.03,0 of 18
KSSQSVDYESTNKNSVA,WASTRES,QQYHRLPLS,2.18 1.59 2.34 nd 2.12 1.61,1.97,0 of 18
KMSQSVLMEQRNKNSVA,DASLRES,QQYHRLPLS,-0.36 -0.64 -0.59 -0.75 -0.73 -0.46,-0.59,1 of 18 (4.15)
TIGQVMNYESRNKNSVA,QTSTREE,QDYDRLPLS,1.86 1.64 2.44 1.55 1.75 2.00,1.87,0 of 18
KISQSVLYESRNNNSVA,WASTRES,QNYHKLPLY,nd 2.87 nd 2.09 1.51 nd,2.16,1 of 18 (1.66)
MLSEVLHMLGVQKNSIA,DLVLRAN,QQYHRLPLM,nd 1.04 nd 1.03 0.41 2.31,1.20,0 of 18
KLSQSVLYEDRNKNNVA,NASTRMS,QQYHRLPLS,-0.32 -0.16 -0.31 -0.49 -0.40 -0.29,-0.33,0 of 18
KYSQSVLDESRNKNSVA,WASTRES,QQYHRLPLS,1.12 0.76 0.48 0.53 0.82 0.85,0.76,1 of 18 (2.61)
KISQMVRVGSTHHNSIA,EEATRAK,QQYHRLPLA,0.49 2.07 1.44 1.22 0.70 1.35,1.21,1 of 18 (1.97)
KSSQSVPGEQRNKNSVA,DASTRES,QQYHRLPLS,0.67 0.12 0.39 -0.09 0.33 0.30,0.29,1 of 18 (2.12)
TMGQVMNYESRNKNSVA,QTSTREE,QDYDRLPLS,nd 2.61 2.01 nd 2.16 2.32,2.27,0 of 18
KLQQFYEGESRNKNSVA,HASTRRS,QQYHRLPLS,1.33 0.50 1.07 0.99 1.34 0.85,1.01,2 of 18 (3.27)
KMMQQQLYEDRNSNAVA,NASQRES,QQYHRLPLS,0.94 0.09 0.81 0.84 0.90 0.48,0.68,2 of 18 (1.96)
TISQMTSLFSQTINNVA,EVSTREQ,QQYDRLPLT,-0.03 0.00 -0.02 0.48 0.58 0.63,0.27,0 of 18
KQEISVLQESRNKNSVA,NASTREV,QQYHRLPLS,-0.03 0.06 -0.05 -0.31 -0.07 0.07,-0.06,0 of 18
KLPQSVLYESRNKNSVA,NASTRYS,QQYHRLPLS,-0.20 -0.09 -0.19 -0.25 -0.22 -0.03,-0.16,1 of 18 (2.31)
KVSQSVFYEDRNKNSVA,NASTRES,QQYHRLPLS,0.48 0.14 0.22 0.18 0.21 0.46,0.28,3 of 18 (3.45)
SCTSEMDQQQEQYNSVA,GVQKTAD,QQYGRLPLS,1.28 1.50 1.14 1.56 1.28 1.41,1.36,0 of 18
KSSQSVLFQSRNKNSVA,EASTRES,QQYHRLPLS,0.28 -0.02 0.15 -0.18 -0.23 0.01,0.00,1 of 18 (3.06)
KVSESVLYESRNKNSVA,EASTRES,QQYHRLPLS,0.44 -0.09 -0.20 -0.30 0.18 -0.02,0.00,1 of 18 (2.18)
KSSWGVDDESRNDNSVA,KASTRLS,QQYHRLPLS,0.35 -0.12 0.01 0.07 0.07 -0.10,0.05,0 of 18
KLSQSQEYESRNKNSVA,DATQRLS,QQYHRLPLS,-0.23 -0.44 -0.40 -0.48 -0.50 -0.25,-0.38,5 of 18 (3.45)
KSSQSVLYESTNKNSVA,SASTCES,QQYHRLPLS,1.44 1.78 1.08 0.78 1.31 1.45,1.31,1 of 18 (1.10)
KISMLINQTFEESNNVA,EMATREK,QQYNRLPLS,nd nd nd nd 2.92 nd,2.92,0 of 18
KLSMSWEYESRNSNSVA,HASTREN,QQYHRLPLA,0.25 0.13 -0.07 0.13 0.46 0.22,0.19,0 of 18
KFSQSVLYEDRNKNNVA,NASQRES,QQYHRLPLS,0.19 0.01 0.14 0.19 0.00 0.28,0.13,3 of 18 (2.67)
SLAYTQHFGQAGGKAVA,EVQMRCQ,QQYFRLPLG,nd nd nd nd nd nd,nd,0 of 18
HVSSMDMTDGGIINSVA,GDKETER,QQYMRLPLS,nd nd nd nd nd 2.88,2.88,0 of 18
KFSQMANTFSVSMNAVA,EMSTREN,QQYNRLPLA,nd 0.37 -0.02 nd 0.12 nd,0.16,0 of 18
MISQVMNTLTRIGNNVA,DLAEREN,QQYFRLPLS,0.38 0.94 1.19 0.69 0.44 0.43,0.68,0 of 18
KLSQSKLYESRNKNSVA,NASTREM,QQYHRLPLS,0.00 0.38 0.07 -0.17 0.27 0.16,0.12,0 of 18
KVFMELAYDKASTRNIA,DASVHCA,QQYQRLPLG,0.78 0.56 0.65 0.40 0.41 0.87,0.61,2 of 18 (2.72)
KLSQSILCESRNKNSVA,DASTRES,QQYHRLPLS,-0.13 -0.17 -0.31 -0.28 -0.33 -0.10,-0.22,1 of 18 (2.82)
KFSQWVLYEGRTKNSVA,NASTRES,QQYHRLPLS,0.17 0.42 0.16 0.01 0.23 0.59,0.26,2 of 18 (1.81)
KSSQSWLYESRNKNSVA,GASTREH,QQYHRLPLS,-0.26 -0.28 -0.16 -0.36 -0.22 -0.02,-0.22,1 of 18 (2.83)
KLQQSNPYESRNKNSVA,NASTRES,QQYHRLPLS,0.42 0.04 0.24 0.01 0.11 0.13,0.16,0 of 18
KLMEGDLYESRNKNSVA,NASKRLE,QQYHRLPLS,-0.24 -0.24 -0.39 -0.42 -0.37 -0.29,-0.33,2 of 18 (3.47)
KSYQSVLFESRPKNSVA,WASTRED,QQYHRLPLS,nd nd nd 3.11 1.75 nd,2.43,1 of 18 (2.32)
KVSQSWLYESRNKNSVA,HASQRES,QQYHRLPLS,-0.23 -0.09 -0.17 -0.27 -0.25 -0.17,-0.20,1 of 18 (2.66)
WLAMEEQPGDRGYSSVA,DTDARMA,QQYFRLPLS,0.33 0.28 0.25 0.31 0.20 0.23,0.27,1 of 18 (2.40)
MISDLMMYGSRAKNPIA,NAETREY,QQYHRLPLE,0.74 0.56 0.73 0.54 0.47 0.75,0.63,2 of 18 (2.40)
KSSQSVLYESTNKYSVA,WASTRES,QQYHRLPLS,2.18 nd 1.82 1.71 2.24 2.27,2.05,0 of 18
KISMLFNYASTNKNSIA,EMTTRES,QHYHRLPLS,1.31 1.40 0.79 1.33 1.06 1.94,1.31,0 of 18
KVMQSVLYEGRNKNSVA,HASTRED,QQYHRLPLS,0.03 0.00 -0.08 -0.24 -0.19 0.00,-0.08,6 of 18 (2.63)
KLSYGNLYESRNKNSVA,EASTRCQ,QQYHRLPLS,0.58 0.65 1.29 0.50 0.81 0.50,0.72,0 of 18
KSSQSQDYESRNKNSVA,NASQRYQ,QQYHRLPLS,0.35 0.20 0.26 0.22 0.21 0.25,0.25,4 of 18 (3.28)
RLRLKELGMSYDANQVA,DSENRIK,QQYYRLPLT,0.56 0.22 0.16 0.26 0.45 0.51,0.36,1 of 18 (4.87)
KSSQSVLYESRNANSVA,AASLRES,QQYHRLPLS,0.68 0.45 0.65 0.41 0.64 0.85,0.61,1 of 18 (2.72)

The opening 7 entries, copied out:

CDR-L1,CDR-L2,CDR-L3,"log10 Kd, replicates","mean, log10 nM",signal with controls
HMSMLTLMGMKQRNSVA,QMTMREN,QQYDRLPLM,1.21 0.70 0.74 1.09 0.95 1.48,1.03,0 of 18
KSSQSVDYESTNKNSVA,WASTRES,QQYHRLPLS,2.18 1.59 2.34 nd 2.12 1.61,1.97,0 of 18
KMSQSVLMEQRNKNSVA,DASLRES,QQYHRLPLS,-0.36 -0.64 -0.59 -0.75 -0.73 -0.46,-0.59,1 of 18 (4.15)
TIGQVMNYESRNKNSVA,QTSTREE,QDYDRLPLS,1.86 1.64 2.44 1.55 1.75 2.00,1.87,0 of 18
KISQSVLYESRNNNSVA,WASTRES,QNYHKLPLY,nd 2.87 nd 2.09 1.51 nd,2.16,1 of 18 (1.66)
MLSEVLHMLGVQKNSIA,DLVLRAN,QQYHRLPLM,nd 1.04 nd 1.03 0.41 2.31,1.20,0 of 18
KLSQSVLYEDRNKNNVA,NASTRMS,QQYHRLPLS,-0.32 -0.16 -0.31 -0.49 -0.40 -0.29,-0.33,0 of 18

In the paper, a design with two or fewer of six values counts as a poor binder. Nonspecific signal, from three strains lacking the peptide, appeared in 4% of pairings of all light chain designs, centred on 2.64 (5% of these signals below 1.59); values are not corrected for it. The control count says in how many pairings with the empty strains this scFv gave a signal, with their mean in brackets. The range of this assay differs from that of the first round, and the authors advise against merging the two.